The structures appear in SMILES notation.

Sequences of proteins named here, by UniProt entry; tags and fusion partners are left off.
UniProt Q13224, whole entry, looked up: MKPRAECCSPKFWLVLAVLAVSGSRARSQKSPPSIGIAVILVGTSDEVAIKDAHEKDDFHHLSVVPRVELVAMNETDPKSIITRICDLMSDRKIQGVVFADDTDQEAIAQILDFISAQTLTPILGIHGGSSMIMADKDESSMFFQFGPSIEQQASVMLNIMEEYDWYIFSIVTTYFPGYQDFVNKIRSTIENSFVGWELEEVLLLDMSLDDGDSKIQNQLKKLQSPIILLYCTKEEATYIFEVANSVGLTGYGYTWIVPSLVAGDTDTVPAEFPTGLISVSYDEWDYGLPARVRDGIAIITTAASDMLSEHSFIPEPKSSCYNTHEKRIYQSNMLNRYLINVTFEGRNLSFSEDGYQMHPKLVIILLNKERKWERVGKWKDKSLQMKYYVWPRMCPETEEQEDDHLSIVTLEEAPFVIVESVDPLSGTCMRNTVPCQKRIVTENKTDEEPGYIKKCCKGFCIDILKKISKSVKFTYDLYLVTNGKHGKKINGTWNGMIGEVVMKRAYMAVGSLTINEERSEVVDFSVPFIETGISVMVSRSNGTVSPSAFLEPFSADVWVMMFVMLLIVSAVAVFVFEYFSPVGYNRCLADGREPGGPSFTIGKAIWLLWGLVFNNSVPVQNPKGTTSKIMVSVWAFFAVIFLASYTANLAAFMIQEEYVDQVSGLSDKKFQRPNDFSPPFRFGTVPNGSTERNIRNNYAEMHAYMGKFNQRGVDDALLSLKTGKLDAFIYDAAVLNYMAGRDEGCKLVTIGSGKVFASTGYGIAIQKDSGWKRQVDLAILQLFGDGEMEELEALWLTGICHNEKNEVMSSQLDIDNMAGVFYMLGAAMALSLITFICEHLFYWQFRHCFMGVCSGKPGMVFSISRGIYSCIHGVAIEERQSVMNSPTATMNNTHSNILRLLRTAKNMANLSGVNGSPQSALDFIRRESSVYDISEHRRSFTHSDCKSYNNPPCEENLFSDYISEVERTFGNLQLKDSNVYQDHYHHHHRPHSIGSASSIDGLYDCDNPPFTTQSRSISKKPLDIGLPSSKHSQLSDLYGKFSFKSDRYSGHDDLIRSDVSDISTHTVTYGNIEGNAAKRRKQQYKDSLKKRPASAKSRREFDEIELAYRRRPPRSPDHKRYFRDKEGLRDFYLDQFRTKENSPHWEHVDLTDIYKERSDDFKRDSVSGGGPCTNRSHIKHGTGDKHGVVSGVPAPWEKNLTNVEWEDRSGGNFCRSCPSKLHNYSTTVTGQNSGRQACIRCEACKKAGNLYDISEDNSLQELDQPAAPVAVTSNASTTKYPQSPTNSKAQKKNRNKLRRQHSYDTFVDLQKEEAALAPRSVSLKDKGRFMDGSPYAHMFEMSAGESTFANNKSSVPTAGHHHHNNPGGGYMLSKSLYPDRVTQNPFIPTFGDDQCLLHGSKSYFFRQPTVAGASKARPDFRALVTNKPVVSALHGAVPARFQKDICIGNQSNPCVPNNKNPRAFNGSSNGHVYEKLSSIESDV
UniProt Q12879, whole entry, looked up: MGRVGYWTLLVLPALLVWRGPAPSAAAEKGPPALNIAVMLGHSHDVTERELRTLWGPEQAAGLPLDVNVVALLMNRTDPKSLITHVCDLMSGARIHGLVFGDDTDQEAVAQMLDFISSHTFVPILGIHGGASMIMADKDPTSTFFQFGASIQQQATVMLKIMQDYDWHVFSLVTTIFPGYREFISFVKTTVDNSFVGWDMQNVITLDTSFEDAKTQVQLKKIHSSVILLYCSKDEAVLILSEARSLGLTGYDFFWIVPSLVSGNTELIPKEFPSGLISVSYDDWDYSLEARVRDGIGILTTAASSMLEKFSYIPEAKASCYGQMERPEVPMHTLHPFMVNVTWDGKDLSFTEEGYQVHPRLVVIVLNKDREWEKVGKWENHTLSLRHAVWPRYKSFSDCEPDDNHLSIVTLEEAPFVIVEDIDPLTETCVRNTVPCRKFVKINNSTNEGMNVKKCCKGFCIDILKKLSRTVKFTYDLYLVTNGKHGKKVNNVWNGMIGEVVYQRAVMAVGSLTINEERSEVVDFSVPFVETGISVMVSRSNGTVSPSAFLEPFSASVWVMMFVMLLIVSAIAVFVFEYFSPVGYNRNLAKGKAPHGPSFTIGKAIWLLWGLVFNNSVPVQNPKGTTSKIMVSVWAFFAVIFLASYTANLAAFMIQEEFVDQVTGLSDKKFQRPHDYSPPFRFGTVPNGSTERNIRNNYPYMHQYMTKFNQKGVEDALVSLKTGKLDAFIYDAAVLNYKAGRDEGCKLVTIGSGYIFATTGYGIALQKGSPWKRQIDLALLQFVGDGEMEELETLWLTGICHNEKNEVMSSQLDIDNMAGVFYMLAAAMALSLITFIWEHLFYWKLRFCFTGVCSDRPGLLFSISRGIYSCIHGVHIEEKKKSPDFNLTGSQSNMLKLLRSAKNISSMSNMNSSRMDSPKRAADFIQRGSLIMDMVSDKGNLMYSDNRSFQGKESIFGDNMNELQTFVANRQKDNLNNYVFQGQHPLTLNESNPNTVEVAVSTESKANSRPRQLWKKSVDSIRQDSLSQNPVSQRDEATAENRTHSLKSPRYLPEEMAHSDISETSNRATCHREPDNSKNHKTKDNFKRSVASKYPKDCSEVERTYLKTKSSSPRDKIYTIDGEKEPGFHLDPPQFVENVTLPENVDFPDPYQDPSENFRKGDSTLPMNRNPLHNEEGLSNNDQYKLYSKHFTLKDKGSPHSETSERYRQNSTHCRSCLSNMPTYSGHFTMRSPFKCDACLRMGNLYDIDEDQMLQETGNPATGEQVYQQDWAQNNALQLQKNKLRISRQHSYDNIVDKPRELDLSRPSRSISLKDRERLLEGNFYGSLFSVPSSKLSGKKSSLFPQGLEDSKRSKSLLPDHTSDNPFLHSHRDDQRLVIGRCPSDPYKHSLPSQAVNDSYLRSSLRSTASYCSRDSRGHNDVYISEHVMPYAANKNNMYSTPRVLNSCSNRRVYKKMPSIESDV

Assay type in all cases: functional, cell-based
Common to all, as to conditions: Oocyte

Assay [1] concerns the target T1, Glutamate NMDA receptor; GRIN1/GRIN2B (Homo sapiens, UniProt Q05586+Q13224). Put plainly: Antagonist activity at wild type NR1/NR2B receptor expressed in Xenopus oocytes assessed as inhibition of agonist-induced current amplitude at 10 uM by two-electrode voltage-clamp method.
In assay [2] the target is T1, Glutamate NMDA receptor; GRIN1/GRIN2B. Put plainly: Antagonist activity at wild type NR1/NR2B receptor expressed in Xenopus oocytes assessed as ratio of residual current induced by agonist in presence of compound to residual current induced by agonist alone at 10 uM by two-electrode voltage-clamp method. On the technique in general: Two-electrode voltage clamp holds a large cell at a set potential and records current.

Assay [3] concerns the target Glutamate NMDA receptor; GRIN1/GRIN2A (Homo sapiens) (UniProt Q05586+Q12879). The assay is described as follows: Antagonist activity at wild type NR1/NR2A receptor expressed in Xenopus oocytes assessed as ratio of residual current induced by agonist in presence of compound to residual current induced by agonist alone at 10 uM by two-electrode voltage-clamp method.

With `CCCN1C(N2CCN(CC(=O)c3cc4ccccc4[nH]3)CC2)=NC2C1C(=O)NC(=O)N2C` (stereo not drawn), the inhibition (usually the relative decrease from the control value, in per cent) in assay [1] was less than 20%. Besides, the values for the Ratio in assay [2] and in assay [3] were 0.95 and 0.98, respectively.

Source of the values: ChEMBL document CHEMBL1221329, “Identification of a novel NR2B-selective NMDA receptor antagonist using a virtual screening approach” (Bioorg Med Chem Lett, 2010).
